# Ab-14 light chain CDR variants: yeast mating affinities

Binding partner: SARS-CoV-2 spike HR2 peptide, sequence PDVDLGDISGINAS.

Ab-14 is the parent antibody, in scFv form: VH, then a 15-residue (Gly4Ser)3 linker, then VL. The heavy chain is unchanged in all variants.
VH: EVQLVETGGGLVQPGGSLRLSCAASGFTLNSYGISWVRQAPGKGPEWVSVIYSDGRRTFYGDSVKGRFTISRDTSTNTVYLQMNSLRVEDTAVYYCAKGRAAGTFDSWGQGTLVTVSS
VL: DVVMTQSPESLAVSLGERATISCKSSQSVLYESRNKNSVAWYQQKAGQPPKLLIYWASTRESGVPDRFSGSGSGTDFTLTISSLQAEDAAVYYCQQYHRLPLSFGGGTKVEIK

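The parent was found by panning a naive human phage display library on the peptide. In library AAYL50, one, two or three CDR residues were substituted; doubles and triples were drawn at random. Affinity was read by AlphaSeq, a pooled yeast mating assay with surface-displayed partners. Binding brings cells together so that they mate, and sequencing counts the barcode pairs among the diploids. The ratio of observed to expected reads was calibrated, replicate by replicate, on BCL2-family standards whose Kd was known from biolayer interferometry. Each pool was mated in three replicate cultures.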

Variants are written as CDR1, CDR2 and CDR3 of the light chain (limits as in the source). Parent: KSSQSVLYESRNKNSVA, WASTRES, QQYHRLPLS. Kd is apparent (estimated from mating counts) and averaged on the log scale over replicates with a signal. Smaller is tighter. An entry "nd" has no value in the source: the pair was not observed among the diploids in any replicate. This suggests poor binding but is not conclusive. In this assay the parent's reference entry averaged 4.4 nM; its copy inside this library read 48 nM. Three control strains display no target. For library AAYL50, 18% of the pairings with them gave a signal, with a median of 15 µM and one signal in twenty below 970 nM, so weak values seen in few replicates may be background. The control count says in how many pairings with the empty strains this scFv gave a signal.

| # | CDR-L1 | CDR-L2 | CDR-L3 | Kd (apparent) | replicates with signal | empty controls |
|---|---|---|---|---|---|---|
| 1 | KSSQSVLYLSRNKLSVA | WFSTRES | QQYHRLPLS | nd | 0 of 3 | 1 of 9 |
| 2 | KSSQSVLYESRTRNSMA | WASTRES | QQYHRLPLS | 2.7 µM | 3 of 3 | 1 of 9 |
| 3 | KSSQSDLYQSRNKNSVA | WASTRES | QQYHRLTLS | 7.8 nM | 3 of 3 | 2 of 9 |
| 4 | KSSQSVLYEERNKNSVA | WCSTREM | QQYHRLPLS | 5.1 µM | 1 of 3 | 4 of 9 |
| 5 | KSSQSVLYESRNKNNVA | WADTRES | QQCHRLPLS | 14 µM | 3 of 3 | 3 of 9 |
| 6 | YSSQSVLYESRNKNSVA | WASTRES | YQYHRLPIS | 12 µM | 1 of 3 | 3 of 9 |
| 7 | KSSQSVLYESRNKMSVA | IALTRES | QQYHRLPLS | nd | 0 of 3 | 0 of 9 |
| 8 | KSSSSVLYESENKNSVA | WASTRES | TQYHRLPLS | nd | 0 of 3 | 1 of 9 |
| 9 | KSSQSVLYESRYKNRVA | WASFRES | QQYHRLPLS | nd | 0 of 3 | 0 of 9 |
| 10 | KSSQSVLAESRNINSVA | WASTRRS | QQYHRLPLS | 30 nM | 3 of 3 | 0 of 9 |
| 11 | KSSQSVLYESRNKNSVA | WASTRES | WQQARLPLS | nd | 0 of 3 | 1 of 9 |
| 12 | KSSQSNLYESRNKNSVA | WASTRES | QAYHRGPLS | 6.6 µM | 2 of 3 | 1 of 9 |
| 13 | KSSQSVLYESRNPNAVA | WASTRES | QQYHRLPDS | 20 nM | 3 of 3 | 3 of 9 |
| 14 | KSSQSVLYESKNKNSVA | WASTRES | QQYHRLRLS | 6.3 nM | 3 of 3 | 7 of 9 |
| 15 | KSSQSVLYESRIKNSVA | WAFTREI | QQYHRLPLS | 16 µM | 1 of 3 | 0 of 9 |
| 16 | KSCLSVLYESRNKNSVA | WASTIES | QQYHRLPLS | nd | 0 of 3 | 0 of 9 |
| 17 | KSSQSVLYESRHKNSVA | WASHRES | QQTHRLPLS | 670 µM | 1 of 3 | 2 of 9 |
| 18 | KSSQSVLYESRNKNSVA | WASTAES | QQYHRLPQS | nd | 0 of 3 | 2 of 9 |
| 19 | KSSQSVWYESRNKNSMA | WASTRES | QQQHRLPLS | 24 nM | 3 of 3 | 0 of 9 |
| 20 | KSSQSTLYESRNKNSVA | MASTRES | QQYHRLPCS | 34 µM | 2 of 3 | 3 of 9 |
| 21 | LSSQSVLYESRNANSVA | WAVTRES | QQYHRLPLS | 43 nM | 3 of 3 | 2 of 9 |
| 22 | KSLQSVQYESRNKNSVA | WASTRES | QQYHRLPLS | 6.9 nM | 3 of 3 | 0 of 9 |
| 23 | KSSQSVLYESRNKNSVA | WASARPS | QWYHRLPLS | 460 nM | 3 of 3 | 2 of 9 |
| 24 | KSSQSVLYESRNKNSVA | AASFRES | QQYHYLPLS | 3.6 nM | 3 of 3 | 0 of 9 |
| 25 | KSSQWVLYESRNKKSVA | WASTRES | QQYHRLDLS | nd | 0 of 3 | 1 of 9 |
| 26 | KSSMSVLYESRNKNSVA | WAPTRES | QQYHRLLLS | nd | 0 of 3 | 0 of 9 |
| 27 | ESSQSVLIESRMKNSVA | WASTRES | QQYHRLPLS | 13 nM | 3 of 3 | 3 of 9 |
| 28 | KSSQSVLYESRNKNSVR | WASTRES | FGYHRLPLS | nd | 0 of 3 | 0 of 9 |
| 29 | KSSCSVLYESRNKFSVA | WASTRES | QQYHRHPLS | nd | 0 of 3 | 0 of 9 |
| 30 | KSSQSVLYLSRNKNSVA | WASTREP | QQYHRLALS | nd | 0 of 3 | 0 of 9 |
| 31 | KSSMSVEYESRNKNPVA | WASTRES | QQYHRLPLS | 2.9 nM | 3 of 3 | 0 of 9 |
| 32 | KSSQSVLYESRNKNSVP | WASTRMS | QQYHRLPLS | nd | 0 of 3 | 0 of 9 |
| 33 | KSSFSVLYESRNKNSVA | WISTRES | QQYHRLPLS | 66 µM | 1 of 3 | 1 of 9 |
| 34 | KSSQSVLYEDRNKNSVA | NASTRES | QQYHRLHLS | 1.1 nM | 3 of 3 | 1 of 9 |
| 35 | KSDQSVLYESRNKNSVM | WASTREK | QQYHRLPLS | nd | 0 of 3 | 1 of 9 |
| 36 | KSSESVLYESRNKNSVA | VAYTRES | QQYHRLPLS | 2.0 µM | 1 of 3 | 2 of 9 |
| 37 | KSSSSVLYESRNKNPVA | WASTRES | QQYTRLPLS | 54 nM | 3 of 3 | 0 of 9 |
| 38 | KSSQSVLYESRNSNSVA | WASTRES | TQYHNLPLS | 23 nM | 3 of 3 | 6 of 9 |
| 39 | KSSQSVLYEHRNKNSDA | WASTRES | QQPHRLPLS | nd | 0 of 3 | 0 of 9 |
| 40 | KSSQSVLYESRNKNSVA | WASTRYS | QQYHRLYIS | nd | 0 of 3 | 3 of 9 |
| 41 | KNSQSVPYESRNKNSVA | WAGTRES | QQYHRLPLS | 3.5 µM | 2 of 3 | 1 of 9 |
| 42 | KRSQPVLYESRNKNSVA | FASTRES | QQYHRLPLS | 880 nM | 2 of 3 | 0 of 9 |
| 43 | KSSQSVAYESRNKNSVA | WASTRES | QQYDNLPLS | nd | 0 of 3 | 0 of 9 |
| 44 | KSRLSVLYESRNKNSVA | WASTRES | QNYHRLPLS | 21 µM | 3 of 3 | 4 of 9 |
| 45 | KSSQSVLYESRNVNSVA | WASTNES | QQYHVLPLS | 33 µM | 1 of 3 | 2 of 9 |
| 46 | KSSQSVLYESRNQNSVA | WASTCES | QQYHRLPLS | 130 µM | 3 of 3 | 5 of 9 |
| 47 | KPWQSVLYESRNKNSVA | WASTRES | QQYHRQPLS | 270 nM | 3 of 3 | 0 of 9 |
| 48 | KSCQSVLYESRNKNSVA | WASTRES | QQPHRLPLS | 190 µM | 2 of 3 | 3 of 9 |
| 49 | FMSQSVLYESRFKNSVA | WASTRES | QQYHRLPLS | 260 nM | 3 of 3 | 3 of 9 |
| 50 | KSSQSVLMESRNKNSVA | WASTRES | QAYCRLPLS | 6.7 nM | 3 of 3 | 4 of 9 |
| 51 | KSSQSVLYESRNKNSVA | WASTMES | QQYHRLPGL | 11 µM | 1 of 3 | 0 of 9 |
| 52 | KSSKEVLYESRNKNSVA | WASTRES | QQYFRLPLS | 2.2 nM | 3 of 3 | 4 of 9 |
| 53 | KSSQSCLYESRNKNSVA | WASSRES | QQYHRLPLL | 24 nM | 3 of 3 | 1 of 9 |
| 54 | KSSQSVLYESRNKNSKA | WASTRMS | QQYHRNPLS | nd | 0 of 3 | 3 of 9 |
| 55 | KSSESVLYTSMNKNSVA | WASTRES | QQYHRLPLS | 4.1 nM | 3 of 3 | 1 of 9 |
| 56 | KQSQSVLYRSRNKNSVA | WASSRES | QQYHRLPLS | 75 µM | 1 of 3 | 1 of 9 |
| 57 | KSSQSVLIESRQKNSVA | WASTRES | QQYHRLPLS | 17 nM | 3 of 3 | 4 of 9 |
| 58 | KSSQSVLYESKNKNSIA | WASTRES | QQYHRLSLS | 640 nM | 2 of 3 | 1 of 9 |
| 59 | KSSQSVLYESRNKNSVA | CASTKES | QQYHRLPLR | 55 µM | 1 of 3 | 3 of 9 |
| 60 | KSSQSVLYWSGNKNSVA | WASTRES | QQYHRQPLS | 370 µM | 3 of 3 | 4 of 9 |
| 61 | KSSQSVLYGSRNKNSVA | WASTRES | QQYHCLPLS | 13 nM | 3 of 3 | 1 of 9 |
| 62 | KSSQSVLYDSRNKNHVA | WASMRES | QQYHRLPLS | 4.1 nM | 3 of 3 | 1 of 9 |
| 63 | KSSQSVLYESTFKNSVA | WASTRES | QQYHRLPLS | 5.1 nM | 3 of 3 | 1 of 9 |
| 64 | KSSQKKLYESRNKNSVA | WAWTRES | QQYHRLPLS | 1.7 µM | 1 of 3 | 1 of 9 |
| 65 | KSSQSVNYESRNKNSVA | WASTRES | GQYHRCPLS | nd | 0 of 3 | 1 of 9 |
| 66 | KSSASVLYESRNKISVA | WASTRES | QQYHRLQLS | nd | 0 of 3 | 3 of 9 |

A selection of 7 entries from above:

| CDR-L1 | CDR-L2 | CDR-L3 | Kd (apparent) | replicates with signal | empty controls |
|---|---|---|---|---|---|
| ESSQSVLIESRMKNSVA | WASTRES | QQYHRLPLS | 13 nM | 3 of 3 | 3 of 9 |
| KSSQSVLYESRNKNSVA | AASFRES | QQYHYLPLS | 3.6 nM | 3 of 3 | 0 of 9 |
| KSSQSVLYEDRNKNSVA | NASTRES | QQYHRLHLS | 1.1 nM | 3 of 3 | 1 of 9 |
| KSSQSVNYESRNKNSVA | WASTRES | GQYHRCPLS | nd | 0 of 3 | 1 of 9 |
| LSSQSVLYESRNANSVA | WAVTRES | QQYHRLPLS | 43 nM | 3 of 3 | 2 of 9 |
| KSSQSVLYESRNKMSVA | IALTRES | QQYHRLPLS | nd | 0 of 3 | 0 of 9 |
| KSSQSVLYESRNKNSVA | WASARPS | QWYHRLPLS | 460 nM | 3 of 3 | 2 of 9 |

The measurements come from Engelhart et al. 2022 (doi:10.1038/s41597-022-01779-4) through the FLAb antibody collection.